# Assay results reported in publication PMC4306142, “Structure of mycobacterial maltokinase, the missing link in the essential GlgE-pathway” (Scientific Reports, 2015).
# System: Nc1ncnc2c1ncn2[C@@H]1O[C@H](COP(=O)(O)OP(=O)(O)OP(=O)(O)O)[C@@H](O)[C@H]1O
# Experiment: purified protein
# Details: pH 7.5; 30.0 °C
substance,measurement,value
(Mycolicibacterium vanbaalenii PYR-1),Km,2600 ± 500 µM
